# Key:
# [1] = system: E. coli
# [2] = applied topically, 5.79 μg (20 μl at 0.5 mM); light 25 J/cm^2; 24 hours post-light
substance,measurement,setting,value
"3,7-(tetra-n-butylamino)-phenothiazin-5-ium [Compound 2]","uptake into E. coli cells, FIG. 9","[1]; 10 μM, 30 minute incubation, cells washed twice",taken up the most
same,"uptake into E. coli, incubation times of 5 minutes versus 30 minutes",[1]; data not shown,no differences in uptake
same,"skin reaction (increase in ear thickness), FIG. 17",[2],little or no reaction

# Source: patent US8188074B2 (dated 2012)
